The conditions of test [1]: animal models; cited from earlier work.
A further test deals with CYP26A1 (Homo sapiens (Human), UniProt O43174). Put plainly: CYP26A1 inhibition assay (9-cis-4-OH-RA formation from 9-cis-RA, recombinant microsomes). Conditions: Table 5. The test is classed as biochemical.

The chains behind the UniProt entries cited, without tags or fusion partners. Where a name states a change or a piece, a line headed by the entry shows the natural chain unless it says otherwise.
UniProt O43174: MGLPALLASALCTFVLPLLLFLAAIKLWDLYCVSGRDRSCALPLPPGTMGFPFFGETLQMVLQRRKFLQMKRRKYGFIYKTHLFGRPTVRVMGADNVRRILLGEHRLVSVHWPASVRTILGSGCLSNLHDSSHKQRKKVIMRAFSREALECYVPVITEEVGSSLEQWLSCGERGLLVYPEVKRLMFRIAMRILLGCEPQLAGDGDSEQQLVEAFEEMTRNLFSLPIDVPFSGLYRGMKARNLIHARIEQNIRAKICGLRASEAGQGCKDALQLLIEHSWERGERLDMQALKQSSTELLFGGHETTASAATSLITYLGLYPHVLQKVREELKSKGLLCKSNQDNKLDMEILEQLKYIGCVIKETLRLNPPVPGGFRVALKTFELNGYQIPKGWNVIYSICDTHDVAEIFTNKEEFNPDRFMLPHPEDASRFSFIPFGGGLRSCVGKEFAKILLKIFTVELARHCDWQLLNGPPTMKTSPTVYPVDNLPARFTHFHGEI

Molecules are shown by their SMILES.

Consider `CC(=O)N1CCN(c2ccc(OCC3COC(Cn4ccnc4)(c4ccc(Cl)cc4Cl)O3)cc2)CC1` (centres unmarked) [ketoconazole], for which the “effect on concentration of atRA in vivo” value in test [1] is “increase the concentration of atRA in vivo”.
For orientation: IC50 means the concentration needed to halve the response being measured. On to `Clc1cccc(C(c2ccc3[nH]cnc3c2)n2ccnc2)c1` (centres unmarked) [liarozole], for which, at CYP26A1, the concentration for half-maximal inhibition (IC50) turned out to be 1900 nM.

The values above are taken from patent US9963439B2, “Specific inhibitors of cytochrome P450 26 retinoic acid hydroxylase” (University of Washington Through its Center for …, priority 2013, dated 2018).
